What is called EC50 is the midpoint of the concentration-response curve.

Sequences of proteins named here, by UniProt entry; tags and fusion partners are left off. A change or cut given only in a name is not applied to a line headed by its entry. Residues count along the entry.
UniProt P18627, 23-450: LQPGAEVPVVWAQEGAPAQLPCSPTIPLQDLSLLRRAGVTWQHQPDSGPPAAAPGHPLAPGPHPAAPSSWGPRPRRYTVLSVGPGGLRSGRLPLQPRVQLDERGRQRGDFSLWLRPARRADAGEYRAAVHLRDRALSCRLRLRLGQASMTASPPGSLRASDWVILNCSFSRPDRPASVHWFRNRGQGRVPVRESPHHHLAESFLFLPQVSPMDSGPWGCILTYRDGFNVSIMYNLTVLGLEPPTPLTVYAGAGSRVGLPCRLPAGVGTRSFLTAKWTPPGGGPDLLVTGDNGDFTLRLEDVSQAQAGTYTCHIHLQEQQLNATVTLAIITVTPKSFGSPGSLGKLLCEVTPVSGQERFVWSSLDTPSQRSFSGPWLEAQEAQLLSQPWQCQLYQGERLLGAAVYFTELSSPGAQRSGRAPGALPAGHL

From patent US10946092 come the findings set out here.

The target in assay [1] is recombinant human LAG3(ECD)-his (Sino Biological, Cat #: 16498-H08H) (human) (UniProt P18627). As to the kind of experiment: ELISA, coated human LAG3(ECD)-his. (An ELISA detects its analyte on a solid surface through an enzyme-linked reagent.)
Assay [2] has as its target hLAG-3-hIg fusion protein (human LAG-3 extracellular domain fused to human Fc; Sino Biological, Cat #: 16498-H02H) (human) (UniProt P18627). As to the kind of experiment: FACS blocking assay; antibody titrated against 10 µg/ml hLAG-3-hIg binding to MHC II on Daudi cells.

For the substance BMS-986016 (antibody), the EC50 is 1.23 nM in assay [1] and 13 nM in assay [2].
